Laboratory results as given in patent publication US20100311084A1, “METHODS FOR PREDICTING A PATIENT'S RESPONSE TO EGFR INHIBITORS” (PRECISION THERAPEUTICS, INC., priority 2008, published 2010).

How the values were obtained:
[1] = system: primary lung cancer cultures; assay: ChemoFx assay, cetuximab, primary lung cancer cultures; format: cell-based, human
From the text: Patient tumor specimens. Deidentified colorectal and lung cancer specimens were procured for research purposes from the National Disease Research Interchange (Philadelphia, Pa.), Cooperative Human Tissue Network (Philadelphia, Pa.), Forbes Regional Hospital (Monroeville, Pa.), Jameson Hospital (New Castle, Pa.), Saint Barnabas Medical Center (Livingston, N.J.), Hamot Medical Center (Erie, Pa.) and Windber Research Institute (Windber, Pa.). Tumor type was provided as either colorectal or NSCLC or other lung cancer. Small-cell lung carcinomas or mesothelioma were not included. Stage for any specimen was not available.
After surgical removal, each specimen was placed in a 125-mL bottle containing sterile McCoy's shipping medium (Mediatech, Manassas, Va.) and shipped overnight to the research laboratory at Precision Therapeutics, Inc (Pittsburgh, Pa.).
Cell lines and tissue specimens were processed and tested with the ChemoFx® assay as described elsewhere. Also see, U.S. Pat. Nos. 5,728,541, 6,900,027, 6,887,680, 6,933,129, 6,416,967, 7,112,415, and 7,314,731; and U.S. application Ser. Nos. 10/399,563, 11/504,098, 11/595,967, 11/713,662, and 11/785,984, all of which are hereby incorporated by reference in their entireties, and especially with regard to tissue processing and cell culturing techniques, and assays. […] The same 10-dose concentration range was used for the cell lines and the tissue specimens. For each dose, a cytotoxic index (CI) was calculated according to the following formula: CI=Mean cell countdose x/mean cell countcontrol, which represents the ratio of cells killed as a result of the treatment. Cell counts were the average of 3 replicates at each dose for primary cultures and 9 replicates at each dose for immortalized cell lines. Dose response curves were generated using the CI at each of 5 doses contained within the 10 dose range. Adjusted areas under the curve (aAUC) were calculated for each dose-response curve as previously described and used to set cutoff values for the categorical responses.

[2] = system: pEGFR, pSTAT3, pErk, pAkt in HCC827 cells; assay: In-Cell Western of downstream signaling molecules, HCC827; format: cell-based, human
Experimental: (§1) In-Cell Western assays. HCC827, H520, H1666 and H358 cell lines were plated in a 384-well microtiter plate at 320 cells/well and cultured for 3 days at 37° C. in 5% CO2 before drug treatment. Each cell line was cultured in RPMI 1640 containing 10% FBS. […] After treatment, cells were fixed with 4% paraformaldehyde. Cells (except for those used to detect the external EGFR staining) were permeabilized with 0.1% Triton X-100 (Fisher Scientific) in PBS. All cells were then washed twice with PBS at room temperature and incubated for 1 h at room temperature in Odyssey blocking buffer with gentle agitation to reduce the nonspecific antibody binding. Then, the cells were incubated overnight at 4° C. with primary antibody diluted in Odyssey blocking buffer with gentle agitation. The primary antibodies were mouse monoclonal antibody to the external epitope of EGFR (1:200); rabbit anti-phospho Akt (1:200), mouse anti-Akt (1:100), rabbit anti-phospho Erk (1:200), mouse anti-Erk (1:50), rabbit anti-phospho STAT3 (1:400) and mouse anti-STAT3 (1:50) (all from Cell Signaling Technology); and mouse anti-phospho EGFR (1:50) and goat anti-EGFR (1:50) (Santa Cruz Biotechnology, Santa Cruz, Calif. USA). After incubation with primary antibody, the cells were washed 4 times with PBS and incubated for 1 hour with the appropriate IR-labeled secondary antibodies [IRDye 800CW-labeled goat anti-rabbit (1:800), IRDye 800CW-labeled goat anti-mouse (1:800), IRDye 800CW-labeled donkey anti-mouse (1:800), IRDye 680-labeled goat anti-mouse (1:400), IRDye 680-labeled donkey anti-goat (1:400), LI-COR] in 0.1% Tween-20 in Odyssey blocking buffer. Cells were then washed 4 times using PBST for 5 minutes with gentle agitation. After the last PBST wash, all liquid was removed from the wells and the plates were immediately scanned on a LI-COR Odyssey Infrared Imaging System and analyzed using Odyssey software and Microsoft Excel (v. 2003, Microsoft Corporation, Redmond, Wash., USA). Integrated intensity ratios were calculated for each cell line by subtracting the background intensity from the negative control intensity for the channel and then dividing the intensity at the 800 channel (green) by the intensity at the 700 channel (red).

[3] = system: pEGFR, pSTAT3, pErk, pAkt in H520 cells; assay: In-Cell Western of downstream signaling molecules, H520; format: cell-based, human
Experimental: as §1

colorectal carcinoma = details: cited from earlier work
NSCLC = details: cited from earlier work
[4] = 34 specimens from lung cancer patients, 72 hour exposure
[5] = 1.6 nM or 1.6 μM cetuximab for 4 h, versus control cells

Q: Which results are given for Cetuximab?
A: primary cultures IR to cetuximab [1, 4]: 6%; primary cultures NR to cetuximab [1, 4]: 91%; primary cultures R to cetuximab [1, 4]: 3%; ChemoFx cetuximab-sensitivity rate (combination of R and IR data) ([1]; samples from patients with NSCLC): 9%; normalized expression of pAkt [2, 5]: lower; normalized expression of pErk [2, 5]: lower; normalized expression of pAkt ([2]; 2 or 24 h after treatment): no change; normalized expression of pEGFR ([2]; any time point (2, 4, 24 h)): no changes; normalized expression of pSTAT3 ([2]; any time point (2, 4, 24 h)): no changes; normalized expression of pAkt ([3]; any time point): no changes; normalized expression of pErk ([3]; any time point): no changes; normalized expression of pEGFR ([3]; any time point (2, 4, 24 h)): no changes; normalized expression of pSTAT3 ([3]; any time point (2, 4, 24 h)): no changes; patients with partial response (colorectal carcinoma; Phase IIB study, irinotecan-refractory colorectal cancer patients [35]): 10.8%; partial response rate (colorectal carcinoma; open-label Phase II study, monotherapy, chemotherapy refractory patients, Saltz et al. [36]): 9%; patients with partial response (NSCLC; Phase II trial, cetuximab monotherapy, NSCLC, preliminary report [44]): 6%; overall response rate (NSCLC; open-label phase II study, single agent, recurrent or progressive NSCLC [45]): 4.5%
